Data as given in patent US20230019619A1, “TREATMENT OF A DISEASE OF THE GASTROINTESTINAL TRACT WITH A TLR MODULATOR” (BIORA THERAPEUTICS, INC., priority 2016, published 2023).

System: distal transverse colon
Test: Histology of distal transverse colon, TNBS porcine colitis model
Settings: Animal 2501, intra-rectal TNBS; exemplary image FIG. 50

trinitrobenzene sulfonic acid
histological section of a distal transverse colon: areas of necrosis and inflammation
